The assay has as its system rats. As to conditions: oral, 0.02 to 0.2 mg kg^−1.

With `Cc1nc2n(c(=O)c1CCN1CCC(c3noc4cc(F)ccc34)CC1)CCCC2` [Risperidone, risperidone], the “difference in exploration times for novel and familiar objects, retention trial” value is reported as “no significant difference”.

The values above are taken from PMC9031908 (RSC Advances, 2021).
